These results are taken from PubChem BioAssay AID588590 (National Center for Advancing Translational Sciences (NCATS), 2011).

By UniProt entry, the sequences of proteins in these tests, tags left out. Where a name states a change or a piece, a line headed by the entry shows the natural chain unless it says otherwise.
UniProt Q9UNA4: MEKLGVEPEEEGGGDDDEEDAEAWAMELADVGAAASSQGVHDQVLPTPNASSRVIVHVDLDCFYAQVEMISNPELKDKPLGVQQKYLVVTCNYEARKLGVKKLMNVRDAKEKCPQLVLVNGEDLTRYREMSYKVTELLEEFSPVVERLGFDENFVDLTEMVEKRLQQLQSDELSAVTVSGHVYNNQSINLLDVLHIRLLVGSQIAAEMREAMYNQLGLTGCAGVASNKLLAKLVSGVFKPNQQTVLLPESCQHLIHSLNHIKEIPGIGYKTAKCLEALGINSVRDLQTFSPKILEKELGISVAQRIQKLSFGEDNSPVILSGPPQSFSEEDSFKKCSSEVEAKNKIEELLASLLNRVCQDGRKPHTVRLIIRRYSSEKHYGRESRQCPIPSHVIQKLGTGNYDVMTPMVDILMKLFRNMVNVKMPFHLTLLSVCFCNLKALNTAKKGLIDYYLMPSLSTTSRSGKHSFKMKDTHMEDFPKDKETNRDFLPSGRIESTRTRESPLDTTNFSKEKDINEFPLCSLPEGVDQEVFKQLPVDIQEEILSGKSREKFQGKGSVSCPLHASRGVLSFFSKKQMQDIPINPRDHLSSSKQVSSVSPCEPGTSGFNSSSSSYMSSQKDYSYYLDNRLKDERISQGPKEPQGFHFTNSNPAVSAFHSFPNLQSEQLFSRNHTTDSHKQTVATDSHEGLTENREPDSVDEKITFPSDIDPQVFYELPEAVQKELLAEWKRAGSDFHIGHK

The list shows a part of the results, in another mix than the full data. Records with an inconclusive call do not appear. Calls of active or inactive are those of the source. Calls follow the shape of the dose curve; as a rule, active = well fitted inhibition curve with a large enough effect; inconclusive = small, poorly fitted or top-dose-only effect, or another doubt; inactive = no such curve, though single readings can be large or run the other way.
Potency is read from the fitted curve at half-maximal effect.

In this experiment the target is DNA polymerase iota (Homo sapiens) (UniProt Q9UNA4). The experiment can be described thus: qHTS for Inhibitors of Polymerase Iota. The settings on record: Pol iota fluorescent replication assay, 10 min; series mostly up to 115 µM. In general terms: qHTS replaces the single test concentration by a dilution series.
On to `Cc1cnc(C(=O)NCCc2ccc(S(=O)(=O)NC(=O)NC3CCCCC3)cc2)cn1`, for which the Potency result was “inactive”.

Consider `CC1(C)N([O-])c2cc([N+](=O)[O-])ccc2[N+]1=O`, for which the Potency was active: 7.94 µM.

On to `N=C(N)c1ccc(OCCCCCOc2ccc(C(=N)N)cc2)cc1` (tested in a mixture with another compound), for which the Potency is active: 6.31 µM.

`N=C(N)c1ccc(OCCCCCOc2ccc(C(=N)N)cc2)cc1`: the Potency was active: 17.8 µM.

Consider `CC(C)(C(=O)O)c1ccc(C(O)CCCN2CCC(C(O)(c3ccccc3)c3ccccc3)CC2)cc1` (stereo not given), for which the Potency result was “inactive”.
